Reference: patent US10030016B2 (Sunesis Pharmaceuticals, Inc., priority 2009, dated 2018)
Structures can show the parent of a compound that is named as a salt.

Amino acid sequences for entries named in this document (tags omitted). Residues count along the entry.
UniProt O15530, 51-359: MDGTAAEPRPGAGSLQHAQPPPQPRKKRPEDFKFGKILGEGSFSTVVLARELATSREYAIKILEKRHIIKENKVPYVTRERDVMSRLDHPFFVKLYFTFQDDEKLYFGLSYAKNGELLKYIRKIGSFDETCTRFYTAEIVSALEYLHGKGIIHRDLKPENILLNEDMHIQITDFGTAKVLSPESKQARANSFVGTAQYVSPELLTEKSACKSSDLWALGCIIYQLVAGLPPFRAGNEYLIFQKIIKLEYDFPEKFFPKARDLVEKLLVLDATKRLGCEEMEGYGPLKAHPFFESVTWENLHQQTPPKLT

Key:
PDK1 = PDK1 (Homo sapiens (Human), UniProt O15530); assay: PDK1 kinase assay (coupled PDK1/AKT/FAM-crosstide assay, IMAP fluorescence polarization); type: biochemical
Method: A PDK1 kinase assay was performed as follows. PDK1 (amino acids 51-359) and AKT2 (amino acids 140-467 fused to PIFtide, amino acids […]) were expressed as N-terminally tagged GST fusion proteins in insect cells and purified to homogeneity. Enzyme activity was determined in a coupled PDK1/AKT/FAM-crosstide assay and phosphorylation of FAM-crosstide was determined by standard IMAP protocol (Molecular Devices). For inhibition studies, compounds were titrated 4-fold in DMSO and diluted 40-fold into assay buffer (10 mM Tris HCl pH7.2; 10 mM MgCl2; 0.01% Triton X-100; 1 mM DTT) containing PDK1, AKT2, and FAM-crosstide (final concentrations: 0.75 nM PDK1, 10 nM unphosphorylated AKT2, and 100 nM crosstide substrate). The kinase reaction was initiated by adding ATP to a final concentration of 40 μM of PDK1 and incubated at 25° C. for 30 min. To detect assay product, the kinase reaction was combined with Progressive Binding Solution (1:600 Progressive Binding Reagent, 50% Buffer A, 50% Buffer B, Molecular Devices) in a 1:3 ratio. […] The fluorescence polarization value “P” is defined by the equation below. […]
Where “par” is fluorescence intensity parallel to the excitation plane; and “perp” is fluorescence intensity perpendicular to the excitation plane. ΔmP values were plotted as a function of compound concentration and the data were analyzed with a 4-parameter fit using GraphPad Prism software.

[1] = test system: phospho-akt (Thr308) in PC-3 cells; assay: Inhibition of phospho-akt (Thr308) in PC-3 cells, MSD phospho-akt 308 ELISA kit; type: cell-based; conditions: Homo sapiens, PC-3, 2 h
Method: PC-3 cells were harvested by trypsin and counted. Cells were plated in coated 96-well flat bottom plates (plate 15,000 cells/well in 100 ul growth media (10% FBS, 1× pen-strep) an place in an incubator overnight.
Subject inhibitors were stocked at 50 mM, then diluted to 30 mM (4.8 μl cpd plus […] DMSO) in 100% DMSO. Three-fold dilutions were performed from 30 mM stock. (4 μl into 8 ul 100% DMSO). Aliquots of 1.0 μl of inhibitor solution were transferred into SF Medium (using deep well block).
Control wells were prepared as follows. For DMSO high controls, 1.0 μl of 100% DMSO was added into 1.0 ml SF. For low controls for PC-3 cells, 5 μM of Wortmannin (10 μl of 1 mM Wortmannin stock was added into 2 ml SF Medium. The supernatant media was removed and the plate was blotted. 100 μl of controls/media or compound/media were added to cells and placed in incubator for 2 hours. The supernatant media was removed and the plate was blotted. 55 μl of the MSD complete lysis buffer was added (10 mls Tris Lysis buffer, 200 ul protease inhibitor, 100 ul phosphatase inhibitor 1, and 100 ul phosphatase inhibitor II). The plate was placed on a plate shaker for 60 mins at 4 deg. […]
25 μl of Ab detection solution was added to each well. […] 150 μl of Read Buffer was added (5 mls 4×MSD Read Buffer+15 mls water). Finally the plate was read immediately on the MSD plate reader.

What does the source list for `COc1cc(NC(=O)c2cccnc2NCc2ccc(-c3ccc4ncnc(N)c4c3)s2)ccc1F` [Example 3.54, 2-({[5-(4-aminoquinazolin-6-yl)thiophen-2-yl]methyl}amino)-N-(4-fluoro-3-methoxyphenyl) pyridine-3-carboxamide (TFA salt)]?
IC50 (PDK1): 1 to 5 µM; EC50 [1]: > 10 µM
